pKi: −log10 of the molar value.
Target: Sodium-dependent serotonin transporter (Rattus norvegicus, UniProt P31652)
Experiment: Inhibition the uptake of tritiated serotonin (5-HT) by the serotonin transporter SERT in rat synaptosomes
Assay type: subcellular, Brain

Chains of the proteins cited; added tags and fusions are not shown.
UniProt P31652, whole entry: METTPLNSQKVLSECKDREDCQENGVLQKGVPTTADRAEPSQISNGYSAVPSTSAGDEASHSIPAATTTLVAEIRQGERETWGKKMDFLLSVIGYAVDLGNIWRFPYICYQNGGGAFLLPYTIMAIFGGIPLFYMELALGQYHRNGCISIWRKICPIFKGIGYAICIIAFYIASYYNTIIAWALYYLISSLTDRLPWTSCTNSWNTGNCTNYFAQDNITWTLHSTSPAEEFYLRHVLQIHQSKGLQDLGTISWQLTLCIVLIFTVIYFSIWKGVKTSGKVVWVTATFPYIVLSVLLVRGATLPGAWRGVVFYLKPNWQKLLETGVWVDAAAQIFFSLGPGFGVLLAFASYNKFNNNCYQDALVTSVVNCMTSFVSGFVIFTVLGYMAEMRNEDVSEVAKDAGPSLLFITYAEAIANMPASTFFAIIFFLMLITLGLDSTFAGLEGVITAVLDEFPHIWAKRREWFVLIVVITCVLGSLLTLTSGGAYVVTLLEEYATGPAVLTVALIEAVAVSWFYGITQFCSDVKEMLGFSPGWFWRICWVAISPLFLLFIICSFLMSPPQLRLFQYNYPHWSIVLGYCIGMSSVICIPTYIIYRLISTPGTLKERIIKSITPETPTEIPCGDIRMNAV

Row | Structure (SMILES) | pKi
1 | Br.Fc1ccc([C@@H]2CN3CCC[C@@H]3c3cc(F)ccc32)cc1 | 8.36
2 | Br.Cn1ccc2c1[C@@H](c1ccccc1)CN1CCC[C@@H]21 | 6.95
3 | Clc1ccc([C@@H]2CN3CCC[C@H]3c3ccccc32)cc1Cl | 7.34
4 | NC(=O)c1ccc([C@@H]2CN3CCC[C@@H]3c3ccccc32)cc1 | 7.72
5 | Br.O[C@@]1(c2ccccc2)CN2CCC[C@H]2c2ccccc21 | 6.06
6 | Br.Clc1ccc2c(c1)[C@H]1CCCN1C[C@H]2c1ccccc1 | 8.32
7 | Br.Oc1ccc([C@@H]2CN3CCC[C@H]3c3ccccc32)cc1 | 7.00
8 | Clc1cccc2c1[C@H](c1ccccc1)CN1CCC[C@H]21 | 6.53
9 | COc1ccc2c(c1)CN(C)CC2c1ccc(Cl)c(Cl)c1 (configuration not stated) [DICLOFENSINE] | 7.99
10 | c1ccc([C@@H]2CN3CC[C@H]3c3ccccc32)cc1 | 5.66
11 | O=C(Nc1ccccc1)Nc1ccc([C@@H]2CN3CCC[C@H]3c3ccccc32)cc1 | 7.00
12 | c1ccc([C@H]2CN3CC[C@H]3c3ccccc32)cc1 | 6.37
13 | FC(F)(F)c1cccc([C@@H]2CN3CCC[C@@H]3c3ccccc32)c1 (stereo in doubt; (-)-37b) | 5.53
14 | Br.Clc1cccc([C@@H]2CN3CCC[C@@H]3c3ccccc32)c1 | 8.14
15 | Br.C[C@]1(c2ccccc2)CN2CCC[C@H]2c2ccccc21 | 7.49
16 | FC(F)(F)c1cccc([C@@H]2CN3CCCC3c3cc(Cl)ccc32)c1 (some centres not stated) | 6.92

Row | Structure (SMILES) | pKi
17 | FC(F)(F)c1ccc2c(c1)[C@H]1CCCN1C[C@H]2c1ccccc1 | 7.91
18 | COc1cccc2c1[C@H](c1ccccc1)CN1CCC[C@H]21 | 6.34
19 | CCN1Cc2ccccc2C(c2ccccc2)C1 (configuration not stated) | 6.77
20 | Br.c1ccc([C@H]2CN3CCC[C@H]3c3ccsc32)cc1 | 7.42
21 | C[C@@]12CCCN1C[C@H](c1ccc(Cl)cc1)c1ccccc12 | 7.17
22 | Clc1ccc([C@@H]2CN3CCC[C@H]3c3cc(Cl)ccc32)cc1 | 6.63
23 | Br.Oc1cccc([C@@H]2CN3CCC[C@@H]3c3ccccc32)c1 | 7.61
24 | Br.c1csc([C@H]2CN3CCC[C@H]3c3ccsc32)c1 | 7.36
25 | Clc1ccc([C@@H]2CN3CCC[C@@H]3c3ccccc32)cc1Cl | 8.74
26 | Br.c1ccc([C@H]2CN3CCC[C@H]3c3[nH]c4ccccc4c32)cc1 | 6.73
27 | COc1cccc([C@@H]2CN3CCC[C@@H]3c3ccccc32)c1 | 8.14
28 | Br.Oc1cccc([C@@H]2CN3CCC[C@H]3c3ccccc32)c1 | 6.20
29 | CCCCc1ccc([C@@H]2CN3CCC[C@@H]3c3ccccc32)cc1 | 6.96
30 | O=C(Nc1ccccc1)Nc1ccc([C@@H]2CN3CCC[C@@H]3c3ccccc32)cc1 | 6.82
31 | Br.Brc1ccccc1[C@@H]1CN2CCC[C@@H]2c2ccccc21 | 8.26

Continued by rising pKi, values first:

Row | pKi | Structure (SMILES)
32 | 5.81 | COc1cc2c(cc1OC)[C@H]1CCCN1C[C@H]2c1ccccc1
33 | 6.12 | C[C@@]12CCCN1C[C@H](c1ccccc1)c1ccccc12
34 | 6.35 | Br.Oc1ccccc1[C@@H]1CN2CCC[C@@H]2c2ccccc21
35 | 6.38 | c1ccc([C@H]2CN3CCCC[C@H]3c3ccccc32)cc1
36 | 6.48 | Br.Oc1ccc([C@@H]2CN3CCC[C@H]3c3ccccc32)cc1O
37 | 6.49 | COc1ccc(NC(=O)Nc2ccc([C@@H]3CN4CCC[C@H]4c4ccccc43)cc2)cc1
38 | 6.53 | O[C@]1(c2ccccc2)CN2CCC[C@H]2c2ccccc21
39 | 6.78 | Br.COc1cccc([C@@H]2CN3CCC[C@H]3c3ccccc32)c1
40 | 6.84 | Br.c1ccc2c(c1)[C@@H](C1CCCCC1)CN1CCC[C@@H]21
41 | 6.91 | Br.Oc1cc2c(cc1O)[C@H]1CCCN1C[C@H]2c1ccccc1
42 | 7.00 | Br.COc1cc([C@@H]2CN3CCC[C@@H]3c3ccccc32)cc(OC)c1OC
43 | 7.14 | Fc1cccc(Cl)c1[C@@H]1CN2CCC[C@@H]2c2ccccc21
44 | 7.36 | Br.Nc1ccc([C@@H]2CN3CCC[C@@H]3c3ccccc32)cc1
45 | 7.48 | Br.Oc1ccc([C@@H]2CN3CCC[C@@H]3c3ccccc32)cc1O
46 | 7.64 | Cc1ccccc1[C@@H]1CN2CCC[C@@H]2c2ccccc21
47 | 7.64 | FC(F)(F)c1cccc([C@@H]2CN3CCC[C@@H]3c3ccccc32)c1 (stereo in doubt; 37b)
48 | 7.74 | Br.COc1ccc([C@@H]2CN3CCC[C@H]3c3ccccc32)cc1
49 | 7.74 | Br.COc1ccc([C@@H]2CN3CCC[C@@H]3c3ccccc32)cc1OC
50 | 8.04 | FC(F)(F)c1cccc([C@@H]2CN3CCC[C@@H]3c3ccccc32)c1 (stereo in doubt; (+)-37b)
51 | 8.07 | Fc1ccc([C@@H]2CN3CCC[C@@H]3c3ccccc32)cc1
52 | 8.28 | Br.O=[N+]([O-])c1ccc([C@@H]2CN3CCC[C@@H]3c3ccccc32)cc1
53 | 8.31 | FC(F)(F)c1ccc([C@@H]2CN3CCC[C@@H]3c3ccccc32)cc1
54 | 8.35 | COc1ccc2c(c1)[C@H]1CCCN1C[C@H]2c1ccccc1
55 | 8.49 | Br.Oc1ccc([C@@H]2CN3CCC[C@@H]3c3ccccc32)cc1
56 | 8.54 | Clc1ccc([C@@H]2CN3CCC[C@@H]3c3cc(Cl)ccc32)cc1
57 | 8.77 | Br.COc1ccc([C@@H]2CN3CCC[C@@H]3c3ccccc32)cc1
